High-throughput results from PubChem BioAssay.
DT40 TDP1 CPT: DT40-hTDP1 cell growth loss with CPT | chicken DT40 Tdp1-/-;hTDP1 cells + 20 nM CPT, ATP luminescence, 48 h | Potency, µM (titrated, usually from 46.2 µM), for the others: at the highest dose activity change, negative = growth inhibition, usual class: inhibitors | actives 12% (n = 420,000) | AID 686979; also: potency is read from the fitted curve at half-maximal effect; % is scaled to controls: 0 for no effect and ±100 for the full control effect; nearly all actives have a fitted effect of over 55% in size
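Cell growth measured by CellTiter-Glo luminescence after a minimum 48 h, 37 C compound exposure with 20 nM CPT in Tdp1-knockout DT40 cells stably expressing hTDP1, seeded 400/well; qHTS titration format.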
DT40 TDP1 no CPT: qHTS for Inhibitors of human tyrosyl-DNA phosphodiesterase 1 (TDP1): qHTS in cells in absence of CPT. Potency, µM (highest dose often 46.2 µM), for inactives: at the top dose activity change, negative = growth inhibition, actives largely listed as inhibitors. AID 686978, 2013. actives 15% (n = 420,000). DT40 Tdp1-/- hTDP1 cells, no CPT, ATP luminescence, 48 h; also: potency is read from the fitted curve at half-maximal effect; % is scaled to controls: 0 for no effect and ±100 for the full control effect; nearly all actives have a fitted effect of over 55% in size
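Camptothecin absent (DMSO only). Human TDP1-complemented DT40 knockout cells, 400 cells/well, 37 °C for minimum 48 hr; ATP measured via CellTiter-Glo, 30 min dark incubation, luminescence.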
TDP1 inh: blocks human tyrosyl-DNA phosphodiesterase 1; Q9NUW8; recombinant TDP1, AlphaScreen DNA substrate cleavage; Potency, µM (highest dose often 130 µM), inactives show at the top dose activity change, negative = inhibition, hits mostly inhibitors; actives 0.28% (n = 350,000); AID 485290; also: potency is read from the fitted curve at half-maximal effect; % is scaled to controls: 0 for no effect and ±100 for the full control effect; nearly all actives have a fitted effect of over 40% in size
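Steps: enzyme plus compound, 15 min RT; add biotin/phosphotyrosine-FITC oligonucleotide (15 nM final), react 5 min; add donor/acceptor beads (10 ug/ml final), 10 min; read AlphaScreen. Tdp1 at 1 nM final.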
uPA surface inh: cell surface uPA generation inhibition; Potency, µM (highest dose often 38.3 µM), for the others: at the top dose activity change, negative = inhibition, most hits filed as inhibitors; cell surface uPA generation assay, qHTS; actives 0.31% (n = 330,000); AID 540303; active = well fitted inhibition curve with a large enough effect; inconclusive = small, poorly fitted or top-dose-only effect; inactive = no such curve, though single readings can be large or run the other way; tested in mouse RAW 264.7 cells; also: potency is read from the fitted curve at half-maximal effect; % is scaled to controls: 0 for no effect and ±100 for the full control effect; nearly all actives have a fitted effect of over 55% in size
miR-21 reporter: miR-21 reporter, rising signal; HeLa miR-21 FLuc reporter, luciferase, 48 h; Potency, µM (doses to about 38.3 µM), for inactives: at the highest dose reporter change, positive = more light; 340,000 tested, under 10 active; AID 2288; active = well fitted rising curve with a large enough effect; inconclusive = small, poorly fitted or top-dose-only effect; inactive = no such curve, though single readings can be large or run the other way;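 further: % of control where 0% means no effect; miR-21 action dims this reporter so a rising signal means less miR-21 action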
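Using DMEM plus 10% FBS, HeLa miR-21-FLuc cells are incubated with test compounds (final up to about 40uM) for 48 hours; firefly luciferase signal is then imaged following reagent-mediated lysis.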
* hit, by the source's call; ? = inconclusive; nt = no result; [ ] = dose if it differs, or a comment. Shown are actives, neighbours in structure and some others; about 16% of the full set was active somewhere. Unless noted, calls follow the shape of the dose curve; as a rule, active = well fitted curve in the direction sought with a large enough effect; inconclusive = small, poorly fitted or top-dose-only effect, or another doubt; inactive = no such curve, though single readings can be large; an effect the other way counts as inactive or inconclusive.

[1] COc1cc2cc(C(=O)N3CCc4ccccc4C3)[nH]c2cc1OC
[2] CCOC(=O)CSC1=Nc2ccccc2C2=NC(CC(=O)NCc3ccc4c(c3)OCO4)C(=O)N12 (stereo not given)
[3] COc1ncc2ncc(=O)n(Cc3cccs3)c2n1
[4] COc1ccc(-n2c(=O)cnc3cnc(N(C)C)nc32)cc1
[5] CN(C)c1ncc2ncc(=O)n(Cc3cccs3)c2n1
[6] COc1ccc(Oc2ncc3ncc(=O)n(-c4ccc(OC)cc4)c3n2)cc1
[7] O=C(COc1ccccc1F)NCC(c1ccco1)N1CCCC1 (stereo not given)
[8] CC(=O)c1c(OC(=O)c2ccccc2Br)ccc2c(C)cc(=O)oc12
assay / entry	1	2	3	4	5	6	7	8
DT40 TDP1 CPT	-4%	-15%	-5%	23µM*	?	-5%	6%	-25%
DT40 TDP1 no CPT	4%	?	-21%	?	21µM*	-26%	7%	-25%
TDP1 inh	3%	-5%	nt	nt	nt	nt	5%	-1%
uPA surface inh	3%	-3%	nt	nt	nt	nt	-5%	-5%
miR-21 reporter	-6%	2%	nt	nt	nt	nt	-3%	-4%

[9] Cc1cc(OC(=O)c2ccccc2Br)cc(=O)n1C
[10] COc1ccc(NC(=O)CNC(=O)Cn2c(C)cc3ccccc3c2=O)cc1OC
[11] COc1cc(NC(=O)CNC(=O)Cn2c(C)cc3ccccc3c2=O)cc(OC)c1OC
[12] CCc1ccc(NC(=O)CNC(=O)Cn2c(C)cc3ccccc3c2=O)cc1
[13] O=C(c1cnn(-c2nccc(-c3ccccc3F)n2)c1C1CC1)N1CCCCC1c1cccnc1 (stereo not given)
[14] Cc1cc(-c2ccnc(-n3ncc(C(=O)N4CCCCC4c4cccnc4)c3C3CC3)n2)c(C)s1 (stereo not given)
[15] COc1ccc(C2C3CCCCC3(O)CCN2C(=O)c2cccs2)cc1 (stereo not given)
[16] CN=c1scc(-c2ccc(F)cc2)n1/N=C/c1ccc(O)c(O)c1
assay / entry	9	10	11	12	13	14	15	16
DT40 TDP1 CPT	21µM*	13µM*	13µM*	-1%	4%[9.04 µM]	8%[9.04 µM]	0%	1.2µM*
DT40 TDP1 no CPT	?	21µM*	15µM*	-2%	21µM*	-3%	-28%	0.82µM*
TDP1 inh	-2%	0%	1%[0.0935 µM]	6%	nt	nt	4%	11%
uPA surface inh	-6%	-8%	-3%	nt	nt	nt	-9%	-13%
miR-21 reporter	1%	6%	1%	8%	nt	nt	-11%	23%

A second format for 3 compounds above.
(9) Cc1cc(OC(=O)c2ccccc2Br)cc(=O)n1C
  DT40 TDP1 CPT = 21µM*
  DT40 TDP1 no CPT = ?
  TDP1 inh = -2%
  uPA surface inh = -6%
  miR-21 reporter = 1%

(10) COc1ccc(NC(=O)CNC(=O)Cn2c(C)cc3ccccc3c2=O)cc1OC
  DT40 TDP1 CPT = 13µM*
  DT40 TDP1 no CPT = 21µM*
  TDP1 inh = 0%
  uPA surface inh = -8%
  miR-21 reporter = 6%

(11) COc1cc(NC(=O)CNC(=O)Cn2c(C)cc3ccccc3c2=O)cc(OC)c1OC
  DT40 TDP1 CPT = 13µM*
  DT40 TDP1 no CPT = 15µM*
  TDP1 inh = 1%[0.0935 µM]
  uPA surface inh = -3%
  miR-21 reporter = 1%

More records:
[17] COc1cc(C2Nc3ccc4ncccc4c3C3=C2C(=O)CCC3)cc(OC)c1OC (stereo not given)
[18] COc1cc(C2Sc3ccccc3NC3=C2C(=O)OC3)cc(OC)c1OC (stereo not given)
[19] CCCCC(=O)Nc1ccc2c3c(cccc13)CC2
[20] COC(=O)CNC(=O)C(Cc1ccccc1)NS(=O)(=O)c1ccc2c(c1)c(=O)n(C)c(=O)n2C (stereo not given)
[21] CCOC(=O)c1c(C)nc2c(c1C)/C(=N/O)CC(C)(C)C2
[22] O=C(Cc1cccc(NC(=O)C2CCN(C(=O)CCc3ccccc3)CC2)c1)Nc1cccc(C(=O)N2CCOCC2)c1
[23] O=C(Cc1cccc(NC(=O)C2CCN(C(=O)c3ccccc3)CC2)c1)Nc1cccc(C(=O)N2CCOCC2)c1
[24] O=C(Cc1ccc(NC(=O)C2CCN(C(=O)CCc3ccccc3)CC2)cc1)Nc1ccc(C(=O)N2CCOCC2)cc1
[25] O=C(Cc1cccc(NC(=O)C2CCN(C(=O)C3CCC3)CC2)c1)Nc1cccc(C(=O)N2CCCC2)c1
[26] O=C(Cc1cccc(NC(=O)C2CCN(C(=O)CCc3ccccc3)CC2)c1)Nc1cccc(C(=O)N2CCCCC2)c1
[27] Cc1[nH]c2ccccc2c1/C=N\NC(=O)c1ccccc1Cl
assay / entry	17	18	19	20	21	22	23	24	25	26	27
DT40 TDP1 CPT	?	16µM*	?	-1%	?	15µM*	15%	?	-12%	?	-19%
DT40 TDP1 no CPT	?	?	?	-16%	23µM*	15µM*	-3%	16µM*	5%	18µM*	-26%
TDP1 inh	5%	3%[56.1 µM]	0%	-5%	1%	nt	nt	nt	0%	nt	nt
uPA surface inh	-28%	-10%	-3%	18%	2%	-1%	15%	-6%	19%	-24%	nt
miR-21 reporter	-6%	20%	-30%	0%	3%	nt	nt	nt	nt	nt	nt
